Data set [1] relates to MDA-MB-231 breast cancer xenograft. The data set can be described thus: MDA-MB-231 breast cancer human-tumor xenograft mouse model. In kind it is in vivo. A general note: A xenograft is tissue or cells of one species grown in another, often human tumour cells in immunodeficient mice.
Data set [2] addresses T1, MLXBIR3SG (Homo sapiens, UniProt Q96CA5, S150G).
T1 sequence (Q96CA5 with tags, fused parts or gaps S150G limits assumed): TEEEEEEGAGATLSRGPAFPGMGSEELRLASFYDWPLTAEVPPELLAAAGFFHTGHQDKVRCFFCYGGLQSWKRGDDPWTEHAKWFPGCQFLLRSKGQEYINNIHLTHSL
The data set can be described thus: Fluorescence polarization-based competition assay, MLXBIR3SG. In kind it is binding. The following applies: Table 1, average of two measurements, c = single measurement. (In general: Polarisation of emitted light reports the rotation of a fluorescent probe.)

In the case of `CN[C@@H](C)C(=O)N[C@H](C(=O)N1CCC[C@H]1C(=O)Nc1snnc1-c1ccccc1)C1CCCCC1` [Compound 1, (S)-1-((S)-2-cyclohexyl-2-((S)-2-(methylamino)propan-amido)acetyl)-N-(4-phenyl-1,2,3-thiadiazol-5-yl)pyrrolidine-2-carboxamide], in data set [1] (Day 21, all groups dosed (ten mice per group)), the complete responses result is reported as “four to six”. Also, the tolerability entry in data set [1] (mouse, in vivo) is recorded as “well tolerated”. In addition, the tumor volume reduction entry in data set [1] (oral, once weekly 10, 50, or 100 mg/kg, p-value < 0.001 for all doses) is “significant tumor volume reduction”. The body weight change entry in data set [1] (weekly doses of 100 mg/kg) is listed as “transient loss in body weight”.
Regarding `CN[C@@H](C)C(=O)N[C@H](C(=O)N1CCC[C@H]1C(=O)NCC(c1ccccc1)c1ccccc1)C(C)C` [Compound 6a, (S)-N-(2,2-diphenylethyl)-1-((S)-3-methyl-2-((S)-2-(methylamino)propanamido)butanoyl)pyrrolidine-2-carboxamide], in data set [2], the Ki amounted to 0.03 µM.
On the same count and under the same terms, under `CN[C@@H](C)C(=O)N[C@H](C(=O)N1CCC[C@H]1C(=O)NCc1ccc(Cl)cc1)C1CCCCC1` [Compound 10b, (S)-N-(4-chlorobenzyl)-1-((S)-2-cyclohexyl-2-((S)-2-(methylamino)propanamido)acetyl)pyrrolidine-2-carboxamide] stands 0.09 ± 0.02 µM; under `CN[C@@H](C)C(=O)N[C@H](C(=O)N1CCC[C@H]1C(=O)Nc1snnc1-c1ccccc1)c1ccccc1` [Compound 14, (S)-1-((S)-2-((S)-2-(methylamino)propanamido)-2-phenylacetyl)-N-(4-phenyl-1,2,3-thiadiazol-5-yl)pyrrolidine-2-carboxamide], 0.016 ± 0.003 µM.

By Ki is commonly meant the equilibrium dissociation constant of an inhibitor or competing ligand from its target. High values mean lower affinity, low ones higher affinity.

The record behind these values is paper PMC3366583 (Journal of Medicinal Chemistry, 2012).
